{
  "source": "patent US8536192B2",
  "about": "“6,7-unsaturated-7-carbamoyl substituted morphinan derivative” (priority 2005, dated 2013)",
  "biological_target": "opioid μ receptor (Rattus norvegicus (Rat), UniProt P33535)",
  "assay": "Binding assay to opioid μ receptor ([3H]-DAMGO, rat cerebrum membrane)",
  "settings": "radioligand, rat cerebrum membrane fraction; read-out: KD value obtained by Scatchard plot analysis",
  "procedure": "1) Method of Preparing Membrane Specimen for Binding Assay\nA rat cerebrum (Slc: SD) which had been stored at −80° C. was used. To a cerebrum which had been weighed was added a 20-fold amount of ice-cooled 10 mM Tris-HCl buffer (pH 7.0), the mixture was homogenized (25000 rpm, 30 seconds) with Histocolon (NITI-ON), and centrifuged at 36600×g for 20 minutes. To the resulting pellet was added 15 ml of the same buffer, and the mixture was treated with Histocolon similarly, and centrifuged. This washing work was performed two times. After centrifugation, to the resulting pellet was added 15 mL of a 50 mM Tris-HCl buffer (pH 7.4), this was treated with Histocolon, and this was finally resuspended in a 10-fold amount of the same buffer, which was used as a crude membrane fraction (Life Sci. 48, 111-116, 1991). The prepared membrane specimen was frozen and stored at −80° C., and at a test, the specimen was rapidly thawed, and diluted to about 900 μg/mL with a 50 mM Tris-HCl buffer (pH 7.4) after the centrifugation and Histocolon treatment, and was used in an experiment. […]\nAfter washing, the filter was transferred to a mini vial for liquid scintillation counter, 5 mL of a scintillator (Cleasol I) was added, and this was allowed to stand overnight, and the radioactivity was measured for 3 minutes with a liquid scintillation counter Tri-Carb 2200CA (PACKARD).",
  "data": [
    {"smiles": "C[C@@H](NC(=O)[C@@H](N)Cc1ccc(O)cc1)C(=O)NCC(=O)N(C)[C@@H](Cc1ccccc1)C(=O)NCCO", "note": "[[^3H]-DAMGO, reference compound]", "values": [
      {"measurement": "Kd", "value": 1.72, "unit": "nM"}
    ]}
  ]
}
